Hits are enriched below; roughly 1.7% of the tested compounds scored in any of these assays.
miR-21 FLuc = miR-21 reporter, rising signal | HeLa miR-21 FLuc reporter, luciferase, 48 h | Potency, µM (top dose mostly 38.3 µM), inactives show at the highest dose reporter change, positive = more light | 340,000 tested, under 10 active | AID 2288; active = well fitted rising curve with a large enough effect; inconclusive = small, poorly fitted or top-dose-only effect; inactive = no such curve, though single readings can be large or run the other way;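 note: % of control where 0% means no effect; miR-21 action dims this reporter so a rising signal means less miR-21 action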
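HeLa cells endogenously expressing miR-21, stably carrying CMV-driven firefly luciferase with a downstream miR-21 binding site, 2000 cells/well. Titrations up to approximately 40 uM, 48 hours; luciferase luminescence read.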
HEK293 tox = cytotoxicity counter-screen for GLP-1 receptor inverse agonists; HEK293 cAMP-luciferase reporter cells, luminescence, 24 h; Potency, µM (highest dose often 38.3 µM), without a hit: at the highest dose activity change, negative = inhibition, actives largely listed as inhibitors; hit rate 0.13% among 410,000; AID 624418;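 further: loss of luciferase light is scored as toxicity; potency means the concentration at half of the fitted maximal effect; on the % scale 0 is the no-effect control and ±100 the full control effect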
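A 23 nL compound transfer followed 12 hours of cell culture at 37 deg C; exposure then lasted 24 hr. Luciferase assay detection reagent was dispensed and plates read for luminescence after a 12 min room-temperature wait.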
Pin1 inh = inhibitors of human Pin1; hit rate 0.009% among 390,000; AID 504891; Potency, µM (series often up to 115 µM), without a hit: at the highest dose activity, negative = inhibition, actives largely listed as inhibitors; Pin1 FP peptide displacement, HiFluor488, 10 min; active means well fitted inhibition curve with a large enough effect in the polarisation, with a control signal flat, not every such curve was filed as active; inconclusive means small, poorly fitted or top-dose-only effect, or effect the other way, or a change in a side signal; inactive means no such curve, though single readings can be large or run the other way; the % refers to the polarisation; further: potency means the concentration at half of the fitted maximal effect; on the % scale 0 is the no-effect control and ±100 the full control effect
GLP-1R agonist = activates the human GLP-1 receptor; Potency, µM (highest dose often 45.6 µM), for the others: at the top dose activation, actives largely listed as activators; P43220; AID 624172; HEK293 GLP-1R CRE-luciferase, luminescence, 4-6 h; cells express a hypersensitive GLP-1R form; hit rate 0.007% among 380,000; further: potency means the concentration at half of the fitted maximal effect; % of control where 0% means no effect
GLP-1R inv ag = GLP-1 receptor (human) inverse agonism. Potency, µM (highest dose often 38.3 µM), for the others: at the top dose activity change, negative = inhibition, most hits filed as inhibitors. HEK293 GLP-1R CRE-luciferase, luminescence, 24 h; GLP-1R form is constitutively active. hit rate 1.6% among 410,000. AID 624417; further: potency means the concentration at half of the fitted maximal effect; on the % scale 0 is the no-effect control and ±100 the full control effect; nearly all actives have a fitted effect of over 55% in size
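Luminescence readout: a drop in cAMP-driven luciferase signal flags inverse agonism at a constitutively active GLP-1R stably expressed in HEK293. Compound exposure lasted 24 hr at 37 deg C, 5% CO2.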
PTHR1 agonist = PTHR1 (human) receptor agonism; hit rate 0.075% among 410,000; Potency, µM (top dose mostly 115 µM), for the others: at the highest dose activation, actives largely listed as activators; AID 743266; Q03431; HEK293 GP2 PTHR1 cells, GloSensor cAMP luminescence, 1 h; further: potency means the concentration at half of the fitted maximal effect; nearly all actives have a fitted effect of over 55% in size
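HEK-293-derived GP2 cells expressing PTHR1 and a GloSensor cAMP reporter, 3,000/well, plated overnight, given luciferin plus IBMX (each 0.5 mM as added) for 1 h at 37 °C, then compound for 1 h at 37 °C. Luminescence was read after 15 min at room temperature.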
* marks the source's active call; other numbers are inactive results; i = inactive; ? = inconclusive; nt = no result; [ ] = another dose, or the depositor's remark. Unless noted, the call rests on the fitted dose curve; in most records, active means well fitted curve in the direction sought with a large enough effect; inconclusive means small, poorly fitted or top-dose-only effect, or another doubt; inactive means no such curve, though single readings can be large; an effect the other way counts as inactive or inconclusive.

SMILES	miR-21 FLuc	HEK293 tox	Pin1 inh	GLP-1R agonist	GLP-1R inv ag	PTHR1 agonist
CCOC(=O)[C@]12Cc3ccc(C)cc3[C@H]1N(C1CCCCC1)C(=O)c1cc(OC)ccc12	nt	11µM*	nt	-12%	?	-96%
CCOC(=O)[C@]12Cc3ccc(C)cc3[C@H]1N(C1CCCCC1)C(=O)c1ccccc12	nt	?	nt	-13%	?	-58%
CCc1ccccc1N1CC(c2nc3ccccc3n2CCC2CCCCC2)CC1=O (stereo not drawn)	?	?	?	nt	?	-95%
C[C@]12CCC3C(CCC4=CC(=O)CC[C@@H]43)C1CCC2O (stereo partly drawn)	nt	nt	nt	4%	nt	nt
CCc1nn2c(=O)cc(N3CCN(C)CC3)nc2s1	nt	nt	5%	nt	nt	nt
COc1cc2nc(Nc3cccc(F)c3)nc(N)c2cc1OC	11%	?	0%	6%	10µM*	-17%
COc1ccc(-n2c(/C=C/c3cccc(F)c3)nc3ccccc3c2=O)c(OC)c1	-1%	-4%	-2%	10%	-18%	-26%
O=C1CC(NC(=O)C(F)(F)F)=NN1c1ccccc1	-1%	?	-1%	-9%	2.5µM*	-22%
C#C[C@]1(OC(=O)CCCCCC)CC[C@H]2C3CCC4=CC(=O)CC[C@@H]4[C@H]3CC[C@@]21C (stereo partly drawn)	nt	nt	nt	-4%	nt	nt
CC1CCC(NC(=O)CN2CCN(S(=O)(=O)c3ccc(Br)s3)CC2)CC1 (stereo not drawn)	nt	?	nt	-1%	10µM*	i

Single entries from the results shown:
Entry for `C#C[C@]1(OC(=O)CCCCCC)CC[C@H]2C3CCC4=CC(=O)CC[C@@H]4[C@H]3CC[C@@]21C` (stereo partly drawn) in GLP-1R agonist: -4%
Entry for `COc1ccc(-n2c(/C=C/c3cccc(F)c3)nc3ccccc3c2=O)c(OC)c1` in GLP-1R agonist: 10%

Whole records from above. Order of screens: miR-21 FLuc | HEK293 tox | Pin1 inh | GLP-1R agonist | GLP-1R inv ag | PTHR1 agonist
Record of C#C[C@]1(OC(=O)CCCCCC)CC[C@H]2C3CCC4=CC(=O)CC[C@@H]4[C@H]3CC[C@@]21C (stereo partly drawn) = nt | nt | nt | -4% | nt | nt
Record of O=C1CC(NC(=O)C(F)(F)F)=NN1c1ccccc1 = -1% | ? | -1% | -9% | 2.5µM* | -22%
Record of C[C@]12CCC3C(CCC4=CC(=O)CC[C@@H]43)C1CCC2O (stereo partly drawn) = nt | nt | nt | 4% | nt | nt

Next entries follow:
SMILES	miR-21 FLuc	HEK293 tox	Pin1 inh	GLP-1R agonist	GLP-1R inv ag	PTHR1 agonist
CCn1nc(-c2ccccc2)nc2c(=O)n(C)c(=O)nc1-2	?	?	?	-26%	5µM*	-24%[57.5 µM]
CC(C)(C#CCN1CCCCC1)OCCOC(c1ccccc1)c1ccccc1	14%	?	-13%	3%	5.6µM*	i
OC(Cc1cccc(Br)c1)c1ncc(-c2cccc(C(F)(F)F)c2)[nH]1 (stereo not drawn)	nt	?	nt	-5%	?	-3%
CCOC(=O)C1(CCOc2ccccc2)CCN(Cc2ccccc2OC)CC1	18%	-20%	8%	6%	8.9µM*	-18%
Cc1ccc(NC(=O)Cn2c(=O)oc3cc(S(=O)(=O)N4CCCCCC4)ccc32)cc1Cl	-8%	3%	12%	nt	3%	-31%
c1cc2c(cc1C1CCCCC1)c1c3n2CCCNC3CCC1 (stereo not drawn)	?	?	-17%	-22%	4µM*	-14%[57.5 µM]
Cc1ccc(-c2nnc(N3CCN(c4ccccn4)CC3)c3ccccc23)cc1	17%	11µM*	9%	1%	8.9µM*	17%
Cc1ccc(-c2nc3ccccc3c(=O)n2-c2ccccn2)cc1	-9%	-8%	1%	5%	-10%	0%
CCN(CCCl)c1cc(CN(C)C)cc(NC(=O)c2ccc(C(=O)Nc3cc(CN(C)C)cc(N(CC)CCCl)c3)cc2)c1	nt	2.8µM*	3%	-9%	?	i
CS(=O)(=O)N(Cc1ccccc1)c1ccc(C(=O)Nc2ccc(Cl)cc2)cc1	-4%	?	3%	nt	?	-22%
CN(C)C(Cc1ccccc1)C(=O)c1c[nH]c2ccccc12 (stereo not drawn)	-21%	1%	-8%	-5%	13µM*	i
CN(C)C(Cc1ccccc1)C(=O)c1ccccc1 (stereo not drawn)	-17%	4%	0%	15%	10%	i
C=C1C(=O)[C@@]23C[C@H]4[C@@H]5[C@@]6(C)CCC[C@@]57[C@@H]2[C@@H](O)[C@@H]1C[C@H]3[C@H]7N4C6	nt	?	0%	-11%	8.9µM*	-36%
CC(Oc1ccc(F)cc1)C(=O)N(CCC1=CCCCC1)c1c(N)n(Cc2ccccc2)c(=O)[nH]c1=O (stereo not drawn)	nt	?	6%	-11%	11µM*	-34%

High-throughput results deposited in PubChem BioAssay by National Center for Advancing Translational Sciences (NCATS).
